By UniProt entry, the sequences of proteins in these tests, tags left out.
UniProt P59533, whole entry A49P/I296V: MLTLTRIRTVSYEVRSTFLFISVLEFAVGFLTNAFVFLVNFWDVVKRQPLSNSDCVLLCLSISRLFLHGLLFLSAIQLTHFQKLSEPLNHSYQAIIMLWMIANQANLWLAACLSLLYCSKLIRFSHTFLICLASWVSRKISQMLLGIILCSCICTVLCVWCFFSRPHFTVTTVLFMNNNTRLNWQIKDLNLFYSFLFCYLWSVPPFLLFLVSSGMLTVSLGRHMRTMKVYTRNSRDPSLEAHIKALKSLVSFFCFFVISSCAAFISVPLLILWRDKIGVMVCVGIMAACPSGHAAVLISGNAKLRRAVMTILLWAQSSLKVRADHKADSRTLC

In US7955808B2, “Bitter taste receptors” (Deutsches Institut für Ernährungsorschung, Stiftung des …, priority 2002, dated 2011):

Target: hTAS2R38 (Homo sapiens, UniProt P59533)
Test: FLIPR assay, heterologous expression of hTAS2R38
Type: cell-based

Compound: O=c1cc(-c2ccccc2)[nH]c(=S)[nH]1
- Approx. Threshold: 0.15 µM
- EC50: 500 nM
- receptor activation (in words): activated
